The source of these data is patent US4125615A, “2-[4-(P-Aminobenzyl)-1-piperazinyl]-8-ethyl-5,8-dihydro-5-oxopyrido[2,3-d]p y” (priority 1976, dated 1978).

The structures appear in SMILES notation.

A short description of one data set: in vivo. To be noted: mouse, po. The source says:
(§1) (5) acute toxicity in mice
(§2) Female ddY strain mice, weighing 25 to 33 g, were used. Test compounds were suspended in 0.2% carboxymethyl cellulose for oral administration, and dissolved in NaOH solution (final pH 8.8-9.2) for intravenous administration.

Another data set concerns mice. Briefly: in vivo. To be noted: mouse, iv, 168 h.
Source text: as §1, §2

As to `CCn1cc(C(=O)O)c(=O)c2cnc(N3CCNCC3)nc21` [Compound PPA, 2-(1-piperazinyl)-8-ethyl-5,8-dihydro-5-oxopyrido [2,3-d]pyrimidine-6-carboxylic acid], in “in vivo”, the 50% lethal dose (LD50) at 168 h was above 2000 mg/kg. Besides, in the data set with mice, the “LD50 (intravenous administration)” value was 707 mg/kg.

Broadly, the LD50 is the dose expected to kill half of the subjects tested. Read a high LD50 as a less toxic substance.
